Literature values as cited in patent US10912809B2, “Enhancer for catechin uptake in enterocytes” (AMOREPACIFIC CORPORATION, priority 2016, dated 2021).

Settings: generally known; background art

For catechin, the “absorbed at a level of intake in the guts” value is given as “less than 2%”.
